## Apparent affinities of Ab-14 variants for a coronavirus HR2 peptide

From the AlphaSeq antibody data of Li et al. 2023 (doi:10.1038/s41467-023-39022-2), copy in the FLAb collection.

Target peptide (SARS-CoV-2 spike, HR2 region): PDVDLGDISGINAS

Ab-14 is the parent antibody, in scFv form: VH, then the linker GGGGSGGGGSGGGGS, then VL. The light chain is unchanged in all variants.
VH: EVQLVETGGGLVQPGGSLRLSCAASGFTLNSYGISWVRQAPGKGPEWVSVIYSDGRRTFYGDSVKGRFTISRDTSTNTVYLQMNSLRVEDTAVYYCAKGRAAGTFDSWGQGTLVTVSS
VL: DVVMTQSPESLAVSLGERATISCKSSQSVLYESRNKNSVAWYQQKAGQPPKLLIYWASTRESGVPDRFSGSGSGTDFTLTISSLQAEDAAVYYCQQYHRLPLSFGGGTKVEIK

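The variants were designed computationally from a first round of random CDR variants and then made and measured. Their group label is 14H_En_Gen (En: ensemble of fine-tuned language models; Gen: genetic algorithm). Affinity was read by AlphaSeq, a pooled yeast mating assay with surface-displayed partners. Binding brings cells together so that they mate, and sequencing counts the barcode pairs among the diploids. Read counts were normalised to the haploid input and turned into Kd by a linear fit to BCL2-family pairs of known affinity, for each replicate. Mating was done six times.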

Each variant is given by its three heavy chain CDRs, as the data file delimits them; those of the parent are GFTLNSYGIS, VIYSDGRRTFYGDSVK, GRAAGTFDS. Values are log10 of the apparent Kd in nM; lower means stronger binding. "nd" marks a missing value. The strain was present, yet no cells mated with the target were sequenced in that replicate, which points to weak or no binding.

CDR-H1,CDR-H2,CDR-H3,"log10 Kd, replicates",signal with controls
GFDLEDYGIS,VIYADGMRTAYADSVK,GNTAGTFDV,-0.63 -0.78 -0.84 -0.49 -1.15 -0.37,0 of 18
GFDLDEYGIS,VIYADGKRTAYADNVK,GEVAGTFDQ,-0.21 -0.47 -0.91 -0.71 -0.57 -0.11,0 of 18
GFDLNEYGIS,VIYADGVRTAYADSVK,GNNAGTFDI,0.13 0.43 -0.10 0.03 0.24 0.64,0 of 18
GFDLNEYGIS,VIYADGMRTAYQDSVK,GNVAGTFDV,1.11 0.32 0.12 0.62 0.34 0.71,0 of 18
GFDLDEYGIS,VIYADGMRKAYSDSVK,GENAGTFDV,-0.44 0.06 -0.65 -1.10 -0.23 -0.40,0 of 18
GFDLNEYGIS,VIYADGVRTYYADSVK,GNVAGTFDL,-0.56 -0.66 -0.78 -0.66 -0.93 -0.63,0 of 18
GFDLDEYGIS,VIYADGMRTAYADDVK,GQNAGTFDL,-0.19 -0.18 -0.70 -0.72 -0.44 -0.49,1 of 18 (0.97)
GFDLNEYGIS,VIYADGRRTAYADDVK,GKNAGTFDV,-0.93 -1.07 -1.08 -1.43 -1.01 -0.99,1 of 18 (1.78)
GFDLDEYGIS,VIYADGRRTFYADSVK,GENAGTFDV,0.09 -0.06 0.03 -0.79 -0.19 0.07,0 of 18
GFDLNEYGIS,VIYADGMRTAYTDSVK,GNQAGTFDT,-0.25 -0.43 -0.84 -0.88 -0.76 -0.44,0 of 18
GFDLDEYGIS,VIYADGMRTAYADDVK,GNNAGTFDV,-0.15 -0.30 -0.52 -0.21 -0.36 0.35,0 of 18
GFDLNEYGIS,VIYADGRRTAYTDSVK,GQNAGTFDV,-0.25 -0.35 -0.75 0.65 -0.19 0.22,0 of 18
GFNLDEYGIS,VIYADGMRTAYTDSVK,GNVAGTFDI,-0.31 0.28 -0.22 -0.38 -0.12 0.10,0 of 18
GFDLNEYGIS,VIYADGMRTFYADDVK,GQVAGTFDV,-0.27 -0.23 -0.36 -0.48 -0.66 -0.53,0 of 18
GFDLNEYGIS,VIYADGMRTAYSDSVK,GNNAGTFDT,-0.07 -0.06 0.00 0.06 0.12 0.08,0 of 18
GFDLNEYGIS,VIYADGQRTAYADDVK,GENAGTFDT,-0.01 -0.10 -0.37 -0.23 -0.33 -0.06,0 of 18
GFDLNEYGIS,VIYADGRRTYYADSVK,GENAGTFDV,1.24 1.14 1.25 1.49 1.32 0.98,0 of 18
GFDLNEYGIS,VIYADGSRTAYADSVK,GQNAGTFDM,0.34 0.26 -0.26 -0.12 -0.01 0.16,1 of 18 (2.34)
GFDLDEYGIS,VIYADGQRTAYADSVK,GENAGTFDL,0.10 0.18 -0.01 -0.06 -0.06 -0.05,0 of 18
GFDLNEYGIS,VIYADGMRTYYADSVK,GENAGTFDT,-0.63 -0.50 -0.36 -0.81 -0.58 0.99,0 of 18
GFDLNEYGIS,VIYADGSRQAYADSVK,GENAGTFDV,-0.40 -0.06 -0.92 -0.25 0.08 0.35,0 of 18
GFDLNEYGIS,VIYADGMRKAYADSVK,GGNAGTFDV,-0.89 -1.19 -1.31 -1.42 -1.15 -1.37,0 of 18
GFDLNEYGIS,VIYADGMRTSYADSVK,GNNAGTFDL,0.92 0.17 -0.09 0.01 -0.39 0.38,0 of 18
GFDLNEYGIS,VIYADGMRTSYADSVK,GENAGTFDL,-0.38 -0.74 -0.28 -0.21 -0.04 0.06,0 of 18
GFDLNEYGIS,VIYADGIRTAYSDSVK,GNQAGTFDV,0.56 0.63 0.45 0.67 -0.19 0.30,0 of 18
GFDLDEYGIS,VIYADGQRTAYIDSVK,GNVAGTFDL,0.29 -0.14 -0.17 -0.42 -0.27 0.03,0 of 18
GFDLNEYGIS,VIYADGSRTAYADSVK,GNVAGTFDT,-0.05 -0.49 -0.16 -0.72 -0.28 0.10,0 of 18
GFDLNEYGIS,VIYADGKRKAYADSVK,GNNAGTFDV,0.10 -0.41 0.07 -0.53 -0.65 -0.08,0 of 18
GFDLNEYGIS,VIYADGMRTVYSDSVK,GENAGTFDI,0.43 -0.11 -0.40 -0.41 -0.34 -0.14,2 of 18 (1.61)
GFDLDEYGIS,VIYADGSRTAYADSVK,GNVAGTFDT,-0.54 -0.59 -1.04 -1.14 -0.86 -0.02,0 of 18
GFDLNEYGIS,VIYADGSRTAYADDVK,GENAGTFDV,0.12 0.17 -0.01 -0.43 0.29 0.04,1 of 18 (2.58)
GFDLEEYGIS,VIYADGQRTAYSDSVK,GNVAGTFDV,-0.88 -0.71 -0.83 -0.83 -0.92 -0.79,0 of 18
GFDLNEYGIS,VIYADGVRTAYADNVK,GNVAGTFDM,-0.26 -0.40 -0.31 -0.35 -0.51 0.08,0 of 18
GFDLNEYGIS,VIYADGMRTAYSDSVK,GANAGTFDI,-0.25 -0.47 -0.27 -0.84 -0.83 -0.49,0 of 18
GFDLNEYGIS,VIYADGIRTAYADDVK,GQNAGTFDV,0.09 -0.42 -0.35 -0.82 -0.54 -0.30,0 of 18
GFDLNEYGIS,VIYADGMRTFYADDVK,GEVAGTFDQ,-0.27 -0.41 -0.80 -0.47 -0.55 -0.22,2 of 18 (2.25)
GFDLNEYGIS,VIYADGQRTAYTDSVK,GENAGTFDL,0.83 0.87 nd -0.36 0.33 0.72,0 of 18
GFDLNEYGIS,VIYADGRRTAYVDSVK,GNVAGTFDI,-0.46 -0.41 -0.58 -0.52 -0.08 -0.27,0 of 18

Picked from the list: the 4 lowest averages where every replicate gave a value.

| CDR-H1 | CDR-H2 | CDR-H3 | log10 Kd, replicates | signal with controls |
|---|---|---|---|---|
| GFDLNEYGIS | VIYADGMRKAYADSVK | GGNAGTFDV | -0.89 -1.19 -1.31 -1.42 -1.15 -1.37 | 0 of 18 |
| GFDLNEYGIS | VIYADGRRTAYADDVK | GKNAGTFDV | -0.93 -1.07 -1.08 -1.43 -1.01 -0.99 | 1 of 18 (1.78) |
| GFDLEEYGIS | VIYADGQRTAYSDSVK | GNVAGTFDV | -0.88 -0.71 -0.83 -0.83 -0.92 -0.79 | 0 of 18 |
| GFDLEDYGIS | VIYADGMRTAYADSVK | GNTAGTFDV | -0.63 -0.78 -0.84 -0.49 -1.15 -0.37 | 0 of 18 |

The range of this assay differs from that of the first round, and the authors advise against merging the two. The parent sequence was in this pool as ten entries: three were never detected, three once, and four in most replicates, with averages from 0.34 to 2.37. The authors' rule: three or more of the six replicates give a measured affinity, fewer mean a poor binder. Empty control strains, which show no peptide, gave a signal in 1% of pairings with all heavy chain designs; the median was 2.08 and 95% of these signals were weaker than 0.84. No background was subtracted. Also given: how often the same scFv was detected with the empty control strains, with their mean in brackets.